From publication PMC8110578, “Phenylethynylbenzyl-modified biguanides inhibit pancreatic cancer tumor growth” (Scientific Reports, 2021)

Test system: KP4 cells
Assay: Cell death assay (trypan blue), KP4 cells
Type: cell-based, human
Settings: metformin 5 mM, phenformin 50 µM, 24 h
Description: Experimental. […] At the end of the treatments, adherent cells were recovered by trypsinization, along with floating cells recovered by centrifugation of the culture medium. Floating and adherent cells were pooled together. The faction of dead cells was quantified by counting the proportion of trypan blue-positive (dead cells) and the proportion of living cells (trypan blue-negative).

**Q.** How did the “Effect on the fraction of dead KP4 cells (in words)” value turn out when [H]/N=C(/N)N/C(=N/[H])NCCc1ccccc1 [phenformin, reference compound] was run?
**A.** no significant effects
